ChEMBL document CHEMBL4673259, “Discovery of isoquinolinone and naphthyridinone-based inhibitors of poly(ADP-ribose) polymerase-1 (PARP1) as anticancer agents: Structure activity relationship and preclinical characterization” (Bioorg Med Chem, 2020)

Experiments:
MDA-MB-436 [1] = experiment: Cytotoxicity against human MDA-MB-436 cells assessed as inhibition of cell viability incubated for 4 days by CellTiterGlo luminescence assay; settings: MDA-MB-436, 96 h
MDA-MB-436 [2] = experiment: Cytotoxicity against human MDA-MB-436 cells assessed as inhibition of cell viability incubated for 14 days with three intermittent intervals by CellTiterGlo luminescence assay; settings: MDA-MB-436, 336 h
HEK293 = experiment: Cytotoxicity against HEK293 cells assessed as inhibition of cell viability; format: cell-based; settings: Homo sapiens

For `Cn1ncnc1[C@H]1c2n[nH]c(=O)c3cc(F)cc(c23)N[C@@H]1c1ccc(F)cc1` [TALAZOPARIB], the IC50 (MDA-MB-436 [1]) was 380 pM, the IC50 (MDA-MB-436 [2]) was 12 pM and the IC50 (HEK293) was 4950 pM.
